From PubChem BioAssay AID602340 (Broad Institute, 2012)
Only a part is listed here, and it is no random draw. The source made the active and inactive calls.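 The calls were made as follows: active = mean ATP rescue above about 67%, or every replicate alone reaching that limit (limit read from the data, passing the limit was not always enough); inconclusive = no clear call, values can overlap the other calls; inactive = mean under the limit and some replicate under it.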

assay: suppressors of statin myotoxicity in C2C12 myotubes, primary screen, cell-based, single point, plate reader (AID 602340); conditions: C2C12 myotubes + simvastatin, ATP luminescence, 48 h; at 7.49 µM; stronger effect = higher value; scaled: DMSO 0, geranylgeraniol control 100;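 also: myotubes were challenged with 10 µM simvastatin during compound exposure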

SMILES	rescue of ATP level
Cc1ccc(C(=O)OC2CN3CCC2CC3)cc1 (stereo not drawn)	inactive: 9.13%
CC1CCC(C(C)C)C(OP(=O)(Nc2ccccn2)c2ccccc2)C1 (stereo not drawn)	inactive: -5.71%
Cc1nn(-c2ccccc2)c2c1P(=O)(N1CCOCC1)N(C)C(c1ccccc1)=N2 (stereo not drawn)	inactive: 8.97%
CCCC1OP(=O)(Nc2ccccc2)OCC1CC (stereo not drawn)	inactive: -7.03%
O=C(/C=C/c1ccccc1)OC1CN2CCC1CC2 (stereo not drawn)	inactive: 2.49%
Cc1ccc(S(=O)(=O)N(CCCN)CCCc2c(C)nc(N)[nH]c2=O)cc1	inactive: 0.116%
O=P1(Nc2ncccn2)COc2ccccc2OC1	inactive: 0.103%
O=[As](O)(c1cccs1)c1cccs1	inactive: 1.83%
NS(=O)(=O)c1cccc(NC(=O)COC(=O)C(O)(c2ccccc2)c2ccccc2)c1	inactive: 2.86%
O=P1(Nc2ccc(Br)cn2)COc2ccccc2OC1	inactive: -4.73%
CCOP(=O)(NC(=NC(C)c1ccccc1)NC(C)c1ccccc1)OCC (stereo not drawn)	inactive: 3.53%
CCC1=CC2Cc3nc4ccc(Cl)cc4c(N)c3C(C1)C2 (stereo not drawn)	inactive: -65.1%
O=P1(Nc2ccccn2)COc2ccccc2OC1	inactive: 3.08%
CN(CCCl)Cc1cc(Cl)c(NC2=NCCN2)c(Cl)c1	inactive: -0.382%
Clc1n[nH]nc1-c1nn[nH][15n]1	inactive: 12.4%
O=P1(N(CCCl)CCCl)NCCC(C(F)(F)F)O1 (stereo not drawn)	inactive: -0.899%
CN(C(=O)Cc1ccc(Cl)c(Cl)c1)[C@@H]1CCCC[C@H]1N1CCCC1	inactive: -1.74%
CC(C)/C=N\N=C(\N)N[N+](=O)[O-]	inactive: -0.908%
CS(=O)(=O)c1ccc(Cl)c(NC(=O)COC(=O)C(O)(c2ccccc2)c2ccccc2)c1	inactive: 6.45%
Cc1cccc(OCC(=O)OC2CN3CCC2CC3)c1 (stereo not drawn)	inactive: 1.76%
O=[As](O)(c1cccc(O)c1)c1cccc(O)c1	inactive: 5.38%
Nc1cccc2c([As](=O)(O)O)cccc12	inactive: 63.2%
Cc1ccc(NCCc2c([N+](=O)[O-])cc([N+](=O)[O-])cc2[N+](=O)[O-])cc1	inactive: -4.01%
CCCOP(=S)(Nc1nc(N)cc(=O)[nH]1)OCCC	inactive: -14.8%

SMILES	rescue of ATP level
O=P(Nc1nccs1)(c1ccccc1)c1nc2ccccc2s1 (stereo not drawn)	inactive: -21.2%
CCOP1(=S)c2c(C)nn(CCC#N)c2N=C(c2ccccc2F)N1C (stereo not drawn)	inactive: -17.9%
CS(=O)(=O)c1cc([N+](=O)[O-])c2no[n+]([O-])c2c1	inactive: -4%
O=C(O)COc1ccc([As](=O)(O)O)cc1[N+](=O)[O-]	inactive: 4.46%
Nc1ccccc1[As](=O)(O)c1ccccc1	inactive: 0.571%
NC(=O)Nc1ccc([As](=O)(O)O)cc1	inactive: 6.14%
CN(C(=O)Cc1ccccc1)[C@@H]1CC[C@]2(CCCO2)C[C@H]1N1CCCC1	inactive: 10.9%
CCOP1(=S)c2c(C)nn(CCC#N)c2N=C(c2ccc(F)cc2)N1C (stereo not drawn)	inactive: -6.73%
N#CCCN(C(=O)COC(=O)C(O)(c1ccccc1)c1ccccc1)c1ccc(F)cc1	inactive: 11.7%
CN(C(=O)Cc1ccc(Cl)c(Cl)c1)[C@H]1CC[C@@]2(CCCO2)C[C@@H]1N1CCCC1	inactive: -1.71%
O=[N+]([O-])c1ccc2c(c1)nnn2O	inactive: -3.87%
O=[N+]([O-])c1ccc(-c2cc([N+](=O)[O-])c(O)c([N+](=O)[O-])c2)cc1	inactive: -0.983%
COc1cc(C(=O)NCC2(N3CCOCC3)CCCCC2)ccc1OCC(C)C	inactive: -10.8%
C[As](=O)(O)c1cccc(C(=O)O)c1	inactive: 7.87%
Cc1ccc(OP(=O)(Nc2ccc([N+](=O)[O-])cn2)Oc2ccc(C)cc2)cc1	inactive: 3.33%
ClCCSc1nnc(-c2cccnc2)o1	inactive: 7.56%
CC(C)c1ccc(OP(=O)(Nc2ccccn2)Oc2ccccc2F)cc1 (stereo not drawn)	inactive: 4.63%
O=C(OC1CN2CCC1CC2)c1cccc2[nH]cnc12 (stereo not drawn)	inactive: -3.61%
CCN(CC)C(=S)SC(NC=O)C(Cl)(Cl)Cl (stereo not drawn)	inactive: -7.06%
Cc1cc(=O)[nH]c(N[N+](=O)[O-])n1	inactive: -0.768%
O=C(OC1CN2CCC1CC2)C12CC3CC(CC(C3)C1)C2 (stereo not drawn)	inactive: -13.3%
O=P1(N(CCCl)CCCl)Nc2ccccc2N1	inactive: -1.21%
COc1cc(I)ccc1[As](=O)(O)O	inactive: -5.48%
O=[N+]([O-])c1cc(Oc2ccc([N+](=O)[O-])cc2C(F)(F)F)cc([N+](=O)[O-])c1	inactive: -4.49%

SMILES	rescue of ATP level
COc1ccc(N/C(=N/P(=O)(N2CCOCC2)N2CCOCC2)N2CCOCC2)cc1	inactive: 18.1%
COP1(=S)c2c(C)nn(CCC#N)c2N=C(c2ccc(F)cc2)N1C (stereo not drawn)	inactive: -12.1%
O=C(O)C(=O)c1ccc(N(CCCl)CCCl)cc1	inactive: 11.7%
O=C(Nc1ccncc1[N+](=O)[O-])c1ccc([N+](=O)[O-])cc1[N+](=O)[O-]	inactive: 16.6%
O=C(COc1ccccc1)OC1CN2CCC1CC2 (stereo not drawn)	inactive: -1.43%
CSc1ccc(Nc2c([N+](=O)[O-])cc([N+](=O)[O-])cc2[N+](=O)[O-])cc1	inactive: 0.872%
O=C(OC1CN2CCC1CC2)c1cccc([N+](=O)[O-])c1 (stereo not drawn)	inactive: -3.91%
O=C(O)C(O)c1ccc(N(CCCl)CCCl)cc1 (stereo not drawn)	inactive: 9.58%
CCOC(=O)Nc1ccc([As](=O)(O)O)c(O)c1	inactive: -12.9%
CC1CCNP(=O)(N(CCCl)CCCl)O1 (stereo not drawn)	inactive: 6.43%
COP(=O)(OC)N1CC1c1ccccc1 (stereo not drawn)	inactive: -0.019%
CCCCOc1ccc(C(=O)NCC2(N3CCCCC3)CCCCC2)cc1OC	inactive: 4.62%
CCOC(=O)Nc1cccc([As](=O)(O)O)c1	inactive: -6.59%
O=[N+]([O-])c1ccc(Nc2ccc(Oc3ccc([N+](=O)[O-])cc3[N+](=O)[O-])cc2)c([N+](=O)[O-])c1	inactive: -1.02%
O=P1(N(CCCl)CCCl)OCCCS1 (stereo not drawn)	inactive: -2.31%
O=C(Nc1cc([As](=O)(O)O)ccc1O)c1ccccc1	inactive: -9.7%
CC(C)(C)C(=O)NC(Sc1ccncn1)C(Cl)(Cl)Cl (stereo not drawn)	inactive: -2.09%
O=C(O)CNc1ccc([As](=O)(O)O)cc1	inactive: -2.25%
O=[N+]([O-])c1cccc(NC2=NCC(CBr)S2)c1 (stereo not drawn)	inactive: 4.31%
COc1ccc(C2=NCC(CBr)S2)cc1 (stereo not drawn)	inactive: 4.85%
CCc1nc2c(n1)c1c(non1O)c1c2no[n+]1[O-]	inactive: -2.46%
CC(=O)N1C2C3N(C(C)=O)C1C1N(C(C)=O)C(C(N1C(C)=O)N3C(C)=O)N2C(C)=O	inactive: -12.8%
O=[N+]([O-])c1cccc2n[nH]nc12	inactive: -11.3%
Nc1ccc([As](=O)(O)c2ccc(N)cc2)cc1	inactive: -0.884%

SMILES	rescue of ATP level
CC1CCN(C(=O)Oc2c(Cl)cc(Cl)c3cccnc23)CC1	inactive: 5.56%
c1cc(-c2nn[nH]n2)ccc1-c1nn[nH]n1	inactive: -6.03%
CC(C)c1nc(Nc2ccccc2)n(P(=O)(N(C)C)N(C)C)n1	inactive: 1.16%
Cc1ccc(N/C(=N/P(=O)(N2CCOCC2)N2CCOCC2)N2CCOCC2)cc1	inactive: 0.709%
CN(C(=O)Cc1ccc(Cl)c(Cl)c1)[C@H]1CCCC[C@H]1N1CCCC1	inactive: -2.62%
CN1CCCC(OC(=O)C(c2ccccc2)c2ccccc2)C1 (stereo not drawn)	inactive: 9.18%
Clc1ccc(Cl)c(NC2=NCC(CBr)S2)c1 (stereo not drawn)	inactive: -5.49%
Cc1ccc(OP(=O)(Nc2nccs2)Oc2ccc(C)cc2)cc1	inactive: 20.4%
Oc1ccccc1CNc1ccccn1	inactive: 0.0705%
CC(C)CC(=O)NC(Sc1ccc(Cl)cc1)C(Cl)(Cl)Cl (stereo not drawn)	inactive: -16.7%
O=P(Nc1nc2ccc(Cl)cc2s1)(c1ccccc1)c1ccccc1	inactive: 15.8%
CN(C)P(=O)(N(C)C)n1c(Nc2ccccc2)nnc1-c1ccccc1	inactive: -0.201%
CCCC1OP(N)(=O)OCC1CC (stereo not drawn)	inactive: 3.97%
CC(=O)Nc1ccc([As](=O)(O)O)cc1	inactive: -3.83%
O=C(O)c1ccccc1[As](=O)(O)O	inactive: 0.361%
CN(C(=O)Cc1ccc(Cl)c(Cl)c1)[C@H]1CCCC[C@@H]1N1CCCC1	inactive: -5.46%
Cc1ccc(NP(=O)(Oc2ccccc2F)Oc2ccccc2F)nc1	inactive: -9.75%
CCOP(=O)(Nc1ccccc1)OCC	inactive: 3.56%
Nc1cccc2ccc([As](=O)(O)O)cc12	inactive: -0.16%
CCNC(=S)/N=C(\N)N[N+](=O)[O-]	inactive: -13.4%
O=P1(N(CCCl)CCCl)OCCC2CCCCN21 (stereo not drawn)	inactive: -1.03%
CCC(=O)N1C2C3N(C(=O)CC)C1C1N(C(=O)CC)C(C(N1C(=O)CC)N3C(=O)CC)N2C(=O)CC	inactive: -3.78%
O=C(OC1CN2CCC1CC2)c1ccccc1 (stereo not drawn)	inactive: 11.8%
COC(=O)c1cc2c(s1)N=C(c1ccccc1)N(C)P2(=O)N1CCOCC1 (stereo not drawn)	inactive: 3.51%

SMILES	rescue of ATP level
CC(NC(=O)COC(=O)C(O)(c1ccccc1)c1ccccc1)c1ccccc1 (stereo not drawn)	inactive: 8.98%
O=P1(Nc2nc3ccc(Cl)cc3s2)COc2ccccc2O1 (stereo not drawn)	inactive: 8.46%
CCc1cc(O)c([N+](=O)[O-])c(C)c1[N+](=O)[O-]	inactive: 8.9%
C[C@H]1OP(=O)(Oc2ccccc2)C[C@@H]2O[C@@H]21 (stereo partly drawn)	inactive: -6.86%
C[C@@H]1C=CCP(=O)(Oc2ccccc2)O1 (stereo partly drawn)	inactive: -2.74%
Cc1ccccc1CN(C)C(=O)COC(=O)C(O)(c1ccccc1)c1ccccc1	inactive: -1.14%
CC(=O)c1ccc(N2CC2c2ccncc2)cc1 (stereo not drawn)	inactive: 2.01%
CC(=O)Nc1ccc(Oc2c([N+](=O)[O-])cc([N+](=O)[O-])cc2[N+](=O)[O-])cc1	inactive: -1.4%
CC(=O)Nc1ccc([As](=O)(O)O)c(O)c1	inactive: 11.1%
O=P(Nc1nccs1)(c1ccccc1)c1ccccc1	inactive: 2.42%
c1nnnn1CCn1cnnn1	inactive: -15.9%
CN(C)C1(CNC(=O)c2ccc(Cl)c(S(N)(=O)=O)c2)CCCCC1	inactive: 2.68%
O=P(Nc1ccccn1)(c1ccc(Br)cc1)c1ccc(Br)cc1	inactive: 7.33%
COc1ccc(N)c([N+](=O)[O-])c1[N+](=O)[O-]	inactive: -7.37%
Nc1ccc(CCCCOc2ccccc2)cc1	inactive: 19.3%
C[C@H]1OP(=O)(Oc2ccccc2)[C@H](O)[C@H](O)[C@H]1N=[N+]=[N-] (stereo partly drawn)	inactive: -0.0735%
O=P(Nc1nc2ccccc2s1)(c1ccccc1)c1ccccc1	inactive: 28.8%
O=[As](O)(c1ccccc1)c1ccc(O)cc1	inactive: 6.82%
O=[N+]([O-])c1ncn(CCn2cnc([N+](=O)[O-])n2)n1	inactive: 2.8%
O=[N+]([O-])c1ccc(O)c(/C=N/Nc2ccc([N+](=O)[O-])cc2[N+](=O)[O-])c1	inactive: -86.5%
O=C(OC1CN2CCC1CC2)c1cccc(Cl)c1 (stereo not drawn)	inactive: -11.9%
Nc1ccc([As](=O)(O)c2ccc([N+](=O)[O-])cc2)cc1	inactive: 3.71%
